## Measured affinities in a library of Ab-91 heavy chain variants

From the AlphaSeq antibody data of Engelhart et al. 2022 (doi:10.1038/s41597-022-01779-4), copy in the FLAb collection.

Target: peptide PDVDLGDISGINAS, taken from heptad repeat 2 (HR2) of SARS-CoV-2 spike.

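The starting antibody came from a phage panning campaign against this peptide. In library AAYL51, one, two or three CDR residues were substituted; doubles and triples were drawn at random. Affinity was read by AlphaSeq, a pooled yeast mating assay with surface-displayed partners. Pairs that bind mate more often; barcode pairs of the diploids are counted by sequencing. A regression on co-assayed BCL2-family reference pairs converts the normalised counts of each replicate to an apparent Kd. Each pool was mated in three replicate cultures.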

Parent scFv Ab-91: VL joined to VH by a 15-residue (Gly4Ser)3 linker. Changes lie in the heavy chain CDRs alone.
VL: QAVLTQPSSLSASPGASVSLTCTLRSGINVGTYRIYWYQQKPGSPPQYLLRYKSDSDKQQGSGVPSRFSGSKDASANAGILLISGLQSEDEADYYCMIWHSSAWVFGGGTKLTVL
VH: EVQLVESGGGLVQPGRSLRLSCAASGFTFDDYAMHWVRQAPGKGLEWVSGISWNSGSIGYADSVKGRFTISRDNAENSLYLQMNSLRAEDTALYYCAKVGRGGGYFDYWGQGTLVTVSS

The parent's heavy chain CDRs are GFTFDDYAMH, GISWNSGSIGYADSVK, VGRGGGYFDY; each variant's own CDRs replace them letter for letter.
This list gathers variants with a substitution at V99 (VH, numbered from residue 1).
Numbers give log10(Kd / nM), so 0 is 1 nM and 3 is 1 µM. Smaller is tighter.
The mean shown is taken over the replicates in which the pair was detected.
A pair that was not seen in any replicate is written "nd"; this usually means weak binding, but a binder can also be missed.
In this assay the parent's reference entry averaged 1.86; its copy inside this library read 0.88.
Background: pairings of library AAYL51 with three empty control strains gave a value in 21% of cases (median 4.54, 5th percentile 3.26). Values in that range, when seen in few replicates, are hard to tell from nonspecific mating. The control count says in how many pairings with the empty strains this scFv gave a signal.

For GFTFDDYAMH | GIIWNSGSIGYADSVK | MGRGGGYFDY, the assay gave nd (0 of 3 replicates; controls 0 of 9). For GFTFDDYAMH | GVSWNSGSIGYADSVK | TGRGGGYFDY, the assay gave 4.92 (2 of 3 replicates; controls 1 of 9). With GFTFFDYAMH | GISWNSGSIGYADSVE | AGRGGGYFDY the result was 5.06 (1 of 3 replicates; controls 0 of 9). With GFTFDDYAMH | KISWNSGSIGYADSVK | AIRGGGYFDY the result was nd (0 of 3 replicates; controls 2 of 9). The variant GFTFDDYAQH | GISENSGSIGYADSVK | WGRGGGYFDY showed 5.08 (2 of 3 replicates; controls 3 of 9). The variant GFTFDDYAMH | GISWNSGSIGYADDVK | TGRGGGYFDY gave 3.34 (3 of 3 replicates; controls 5 of 9).

The variant GFTFDDYAMH | GISWNSGSIGYADQVK | SGRGGGYFAY gave nd (0 of 3 replicates; controls 0 of 9). With GFTFDDYAMA | GISWNSGSIGYADSVK | IGRGGEYFDY the result was 3.79 (2 of 3 replicates; controls 0 of 9). For GFTFDDYAGH | GISWNSGMIGYADSVK | DGRGGGYFDY, the assay gave 4.52 (2 of 3 replicates; controls 5 of 9). With GDTFDDYCMH | GISWNSGSIGYADSVK | YGRGGGYFDY the result was 4.76 (2 of 3 replicates; controls 1 of 9). The variant GFKFDDYAMH | GISWNSGSIGYADSNK | AGRGGGYFDY gave 3.67 (1 of 3 replicates; controls 0 of 9). For CFTFDDYAMH | GSSWNSGSIGYADSVK | IGRGGGYFDY, the assay gave 5.40 (1 of 3 replicates; controls 6 of 9).

The variant GFTVDDYAMH | GISWNSGSIGYADSVK | IGRGGGYFSY showed 5.22 (2 of 3 replicates; controls 7 of 9). For GFTFDDYAMH | GRSWNSGSIGYADSVD | YGRGGGYFDY, the assay gave 3.60 (1 of 3 replicates; controls 2 of 9). The variant GFTFDDYAMH | GISWNSGNIGYADSVK | SGRGGGYFDY showed nd (0 of 3 replicates; controls 0 of 9). The variant GFTFPDYQMH | GISWNSGSIGYADSVK | QGRGGGYFDY gave 3.64 (2 of 3 replicates; controls 1 of 9). The variant GCTFDDWAMH | GISWNSGSIGYADSVK | EGRGGGYFDY gave nd (0 of 3 replicates; controls 1 of 9). The variant GFTFDDYAMH | GISWNSGSIGYADSVK | RGRGGGGFDY showed 1.01 (3 of 3 replicates; controls 5 of 9).

For GFTFDDVAMH | GISWNSGSIGYADSTK | TGRGGGYFDY, the assay gave 3.22 (1 of 3 replicates; controls 0 of 9). For GFTFDDYAMH | GISWNSGSIGYADSVK | SGRGGGYFLY, the assay gave nd (0 of 3 replicates; controls 3 of 9). With GFWFDDYAMH | GISWNSGSIGYADSVK | HGRGGQYFDY the result was 4.02 (2 of 3 replicates; controls 1 of 9). With GFTFDDYAMH | GISWNSGSIGYVDSVK | AGRGGGYFKY the result was nd (0 of 3 replicates; controls 0 of 9). The variant GFTFDDYAMH | GISLNSGSIGYADSVK | DGRGGYYFDY gave 4.62 (1 of 3 replicates; controls 2 of 9). For GSTFDDYAMH | GISWNSGSIGYADSVK | ISRGGGYFDY, the assay gave 5.06 (2 of 3 replicates; controls 4 of 9).

The variant GFTFDDYAMH | GDSWNSGSIGYADSVK | GGRGGGYFNY gave 3.96 (1 of 3 replicates; controls 5 of 9). The variant GFTFDDYAMH | GISWNSGSIGYADSVK | QGRGSGYFDY showed nd (0 of 3 replicates; controls 2 of 9). With GFTFDDEAMH | GISWNSGSIGYMDSVK | TGRGGGYFDY the result was 4.08 (1 of 3 replicates; controls 0 of 9). The variant GFTFDDYAEH | GISWNSGSIGYADSVK | FGRGGGYFDY gave 4.72 (1 of 3 replicates; controls 2 of 9). For GFTFLDYAMH | GISWNSGSIGYADSVK | ENRGGGYFDY, the assay gave 4.82 (3 of 3 replicates; controls 2 of 9). With GFTFDDYAMH | GISWHSGSIGYADSVK | PGRGGGYFDP the result was nd (0 of 3 replicates; controls 0 of 9).

For GFTFDDYAMH | GISWNSGSIGYADSVK | CNRGGGYFDY, the assay gave 4.48 (2 of 3 replicates; controls 1 of 9). For SFTFDDYAMH | GISWNSGSIGYADSVK | TGRGGGYFDP, the assay gave 4.46 (1 of 3 replicates; controls 3 of 9). The variant NFTFLDYAMH | GISWNSGSIGYADSVK | RGRGGGYFDY gave 4.08 (1 of 3 replicates; controls 1 of 9). The variant GFTFDDYAMH | GISWNSGSYGYADSVK | RGRGGGYFQY showed nd (0 of 3 replicates; controls 0 of 9). The variant GFTLDDYAMH | GISWNSGSIGYADWVK | NGRGGGYFDY showed 3.79 (3 of 3 replicates; controls 6 of 9). With GFTFDTYAMH | GISWNSGSIGYADSVK | LGRGGGYIDY the result was 1.23 (3 of 3 replicates; controls 0 of 9).

The variant SFTFDDYAMH | GISWNSGSIGYADSVK | EGRGGGYDDY showed nd (0 of 3 replicates; controls 0 of 9). The variant GFTFDDYAMH | GISWNSCSRGYADSVK | WGRGGGYFDY showed nd (0 of 3 replicates; controls 1 of 9). The variant GITFDDYAMH | GISWNSGSIGYAFSVK | PGRGGGYFDY gave nd (0 of 3 replicates; controls 1 of 9). The variant GFTFDDYAMH | GKSWNSGSIGYADSVK | GGRGGGYFDY gave nd (0 of 3 replicates; controls 0 of 9).

Repeated from above, the 3 best binders with a signal in all replicates:

| CDR-H1 | CDR-H2 | CDR-H3 | mean, log10 nM | seen in | signal with controls |
|---|---|---|---|---|---|
| GFTFDDYAMH | GISWNSGSIGYADSVK | RGRGGGGFDY | 1.01 | 3/3 | 5/9 |
| GFTFDTYAMH | GISWNSGSIGYADSVK | LGRGGGYIDY | 1.23 | 3/3 | 0/9 |
| GFTFDDYAMH | GISWNSGSIGYADDVK | TGRGGGYFDY | 3.34 | 3/3 | 5/9 |